## Apparent affinities of Ab-14 variants for a coronavirus HR2 peptide

Reference: Li et al. 2023, doi:10.1038/s41467-023-39022-2. File: FLAb, binding data.

The target is the same throughout: PDVDLGDISGINAS, from the HR2 region of SARS-CoV-2 spike.

The variants keep the heavy chain, the linker and the frameworks of Ab-14 (scFv order VH, three GGGGS repeats, VL).
VH: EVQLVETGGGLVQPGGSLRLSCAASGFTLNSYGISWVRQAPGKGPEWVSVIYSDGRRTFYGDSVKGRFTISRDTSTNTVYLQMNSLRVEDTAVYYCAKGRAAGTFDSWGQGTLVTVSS
VL: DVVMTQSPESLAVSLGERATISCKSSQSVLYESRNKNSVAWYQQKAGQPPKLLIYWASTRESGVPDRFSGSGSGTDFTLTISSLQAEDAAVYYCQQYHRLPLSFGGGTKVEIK

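Designed CDR sequences, proposed from the first random library and measured here. Group labels follow the data file (Ctrl: baseline library sampled from a position-specific scoring matrix, with some repeated check sequences; Rand: our label for a block that the file lists under HC and that is probably the random mutants of the ten best first-round binders; En: ensemble of fine-tuned language models; GP: Gaussian process model; HC: hill climbing; Gen: genetic algorithm; Gibbs: Gibbs sampling; a sequence that several methods proposed may carry one label only). The assay is AlphaSeq: two haploid yeast populations carry antibody and antigen on their surface. Mating (16 h, 30 °C) was followed by selection of diploids and sequencing of their barcodes. The ratio of observed to expected reads was calibrated, replicate by replicate, on BCL2-family standards whose Kd was known from biolayer interferometry. Each pool was mated in six replicate cultures.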

The parent's light chain CDRs are KSSQSVLYESRNKNSVA, WASTRES, QQYHRLPLS; each variant's own CDRs replace them letter for letter. Values are apparent Kd, the geometric mean of the replicates that gave a signal; lower means stronger binding. An entry "no signal" has no value in the source: the pair was not observed among the diploids in any replicate. This suggests poor binding but is not conclusive. Three control strains display no target. For all light chain designs, 4% of the pairings with them gave a signal, with a median of 430 nM and one signal in twenty below 38 nM, so weak values seen in few replicates may be background.

CDR-L1,CDR-L2,CDR-L3,group,Kd (apparent),detected
KLYQATAMTSQMRNNVA,DLNERER,QQYFRLPLS,En_HC,2.1 nM,6 of 6
HVAQTRQEDIQNKNSVA,EGSVVIS,QQYSKLPFS,En_Gibbs,2.1 nM,6 of 6
KLSTVTEYESRNKNNVA,DLSTRGS,QDYHRLPLS,En_HC,650 pM,6 of 6
KIGMTLNQLMHQKNNVA,DLVTRED,QQYHRLPLS,En_Gen,6.8 nM,6 of 6
KSSGSYLYESPNKNSVA,EASTRES,QQYHRLPLS,GP_HC,1.4 nM,6 of 6
KSSQSVLYEDENKNSVA,WASTRES,QQYHDLPLS,Ctrl,270 nM,3 of 6
MFSQLMMYGSRNYNSVA,QASTRES,QQYHRLPLI,En_HC,86 nM,5 of 6
TISQMSTLFSQSINNVA,EVSTREQ,QQYDRLPLA,En_Gen,11 nM,6 of 6
QMTGQLFEQGNRSEPIA,HESMKEK,QQYFQLPLT,En_Gibbs,170 nM,3 of 6
KSSQSVLYDSRNKNSVA,WASTRES,QQYCRLPLS,Ctrl,no signal,0 of 6
KLRMSTLYESRNKNSVA,WASTRES,QQYHRLPLS,Rand,2.9 nM,6 of 6
KLPQSCLYESRNKNSVA,MASQRCS,QQYHRLPLS,GP_Gibbs,3.0 nM,6 of 6
GILSQMDGPTAYKENIA,NETERLR,QQYQRLPLT,En_Gibbs,6.0 nM,6 of 6
HMSMLTLQGQRHKNSVA,QMTTREN,QQYDHLPLS,En_Gen,14 nM,6 of 6
KSSPSVLYESFNKNSVA,NASTRMS,QQYHRLPLS,GP_HC,7.3 nM,6 of 6
KLSQAFLNESRNKNSVA,DANTRES,QQYHRLPLS,GP_HC,2.0 nM,6 of 6
TISQMTSLFSQSINNVA,EVSMREK,QQYDRLPLM,En_Gen,76 nM,6 of 6
KFSQSVLYESRDKNGVA,NASTRES,QQYHRLPLS,GP_HC,1.4 nM,6 of 6
KQSQSHLYLSLNKNSVA,QASTRES,QQYSRLPLS,Ctrl,1.9 nM,6 of 6
KSLQSVLYEQRNKNSVA,HASTRED,QQYHRLPLS,Rand,3.2 nM,6 of 6
KVPQSHLYESRNKNSVA,EASTRES,QQYHRLPLS,GP_Gen,570 pM,6 of 6
KSSQDCLYESRNKWSVA,WASERES,QQYHRLPLS,Ctrl,2.8 nM,6 of 6
KLSPSVQYEDRNCNAVA,QASQRES,QQYHRLPLS,GP_Gibbs,2.1 nM,6 of 6
KVSQSDLYEARNKNSVA,WAVTRET,QQYHRLPLS,Ctrl,18 nM,6 of 6
KITGLVMETSRNKNNVA,EVSTLPD,QQYHRLPLS,En_HC,1.6 nM,6 of 6
KSSQSVIAESRNKNSVA,EASTRES,QQYHRLPLL,Ctrl,800 pM,6 of 6
KSSQSVLKESDNKNSVA,WASTRSS,QQYHRLPLS,Ctrl,3.6 nM,6 of 6
KFMQSWLGESLNKNSVA,NASQREH,QQYHRLPLS,GP_Gibbs,1.9 nM,6 of 6
KSSQSVLAESRNHNSVA,WASTRES,QQYHRLPLS,Ctrl,40 nM,6 of 6
KSSQSWLYESRNFWSVA,GASTRED,QQYHRLPLS,GP_HC,4.6 nM,6 of 6
KVSEFMRGLMKQKNSIA,DNVTRNN,QQYDRLPLS,En_Gen,140 nM,5 of 6
KLYQVTTHHGATLNNIA,EGARRND,QQYARLPLV,En_Gibbs,1.5 nM,6 of 6
KLEQSTLYESRNKNSVA,NASQRER,QQYHRLPLS,GP_Gibbs,550 pM,6 of 6
KSSQSVLYEDRNKNSVA,AASTRES,QQYRQLPLA,Ctrl,1.1 nM,6 of 6
KLWAYTQGFFRNMQNIA,DGIYRVT,QQYGRLPLS,En_Gibbs,77 nM,6 of 6
KFANQLVYMNQGQNAIA,DVTNKSA,QQYLRLPLM,En_Gibbs,5.7 nM,6 of 6
KMSMSELYEDRNQNSVA,SASQRLD,QQYHRLPLS,GP_Gibbs,980 pM,6 of 6
KSSQLKLYETRNKNSVA,WASTRES,QQYHRLPLS,Ctrl,no signal,0 of 6
KLRQSTVIESFEKNNVA,EMTTRES,QSYDRLPLS,En_HC,22 nM,6 of 6
KMPQSELYESRNKNSVA,NASQRES,QQYHRLPLS,GP_Gen,980 pM,6 of 6
HLSLPWQLGHDSTNAVA,NDSTLMT,QHYSRLPLS,En_Gibbs,1.4 nM,6 of 6
HISANMWMQGSQWDAVA,QGDIANN,QQYSRLPLS,En_Gibbs,6.5 nM,6 of 6
KSSQSMLYESYNKNSVA,WASTRES,QQYHRLPLS,Ctrl,26 nM,6 of 6
RLRLKELGMSYDANQIA,DSENRIK,QQYYRLPLT,En_Gibbs,1.5 nM,6 of 6
KISQSVLYESRNKNSVA,WASTREE,QQYHRLPLS,Ctrl,2.7 nM,6 of 6
TISQMFLGESRNRNSVA,QASTRNS,QSYDRLPLS,En_HC,3.8 nM,6 of 6
KVPQSMLYESRNANSVA,NASTRLS,QQYHRLPLS,GP_Gibbs,790 pM,6 of 6
KLQMSHGYGSRMKNSVA,QASQREE,QQYHRLPLS,GP_Gibbs,3.1 nM,6 of 6
TISQSAQLESHNKNSVA,DLNVRGS,QQYDRLPLS,En_HC,2.8 nM,6 of 6
KLSQSWLGQSWNKNSVA,NASQREH,QQYHRLPLS,GP_Gibbs,14 nM,6 of 6
MISDTGLHDSRMKNSVA,NNSTREA,QQYHRLPLS,En_HC,66 nM,5 of 6
KSSISYLYESENKNSVA,NASQRES,QQYHRLPLS,GP_HC,2.0 nM,6 of 6
KLSQSVLYESRNSNSVA,NASTREM,QQYHRLPLS,GP_Gen,550 pM,6 of 6
KVSQSVLYEQRNKNAVA,EASTRES,QQYHRLPLS,GP_Gen,1.1 nM,6 of 6
KIGATLNTLYEKKNNVA,DLVLREN,QQYFRLPLS,En_Gen,3.9 nM,6 of 6
KLSQSDLYESRNKNSVA,NASTRMQ,QQYHRLPLS,GP_Gen,730 pM,6 of 6
QIQFLDVQYGVKEQAIA,EENQRDQ,QHYFRLPLS,En_Gibbs,no signal,0 of 6
MISQLYNMGQFAKNSVA,QASERNA,QQYDRLPLI,En_Gen,11 nM,6 of 6
KSSQSWLYESRNFKSVA,NASTRES,QQYHRLPLS,GP_HC,1.6 nM,6 of 6
KIRQSVLYESANANSVA,WASTRES,QQYHDLPLS,Ctrl,no signal,0 of 6
KVSQSVPYESRNKNSVA,NASTRES,QQYHRLPLM,GP_Gen,58 nM,3 of 6
KSQQSWLYESRNSNSVA,NGSTREL,QDYHRLPLS,GP_Gibbs,3.0 nM,6 of 6
KSSQSVIYESRNKNSVA,WGSTRES,QQYHRPPLS,Ctrl,no signal,0 of 6

8 of these entries, quoted again:

CDR-L1,CDR-L2,CDR-L3,group,Kd (apparent),detected
KSSISYLYESENKNSVA,NASQRES,QQYHRLPLS,GP_HC,2.0 nM,6 of 6
KLYQATAMTSQMRNNVA,DLNERER,QQYFRLPLS,En_HC,2.1 nM,6 of 6
MFSQLMMYGSRNYNSVA,QASTRES,QQYHRLPLI,En_HC,86 nM,5 of 6
KLEQSTLYESRNKNSVA,NASQRER,QQYHRLPLS,GP_Gibbs,550 pM,6 of 6
KVPQSHLYESRNKNSVA,EASTRES,QQYHRLPLS,GP_Gen,570 pM,6 of 6
KLPQSCLYESRNKNSVA,MASQRCS,QQYHRLPLS,GP_Gibbs,3.0 nM,6 of 6
KFANQLVYMNQGQNAIA,DVTNKSA,QQYLRLPLM,En_Gibbs,5.7 nM,6 of 6
HLSLPWQLGHDSTNAVA,NDSTLMT,QHYSRLPLS,En_Gibbs,1.4 nM,6 of 6

In the paper, a design with two or fewer of six values counts as a poor binder. Values of this round are not directly comparable with the first-round values of the same sequences.